From patent publication US20060159676A1, “Methods for modulating angiogenesis, lymphangiogenesis, and apoptosis with apelin compositions” (priority 2005, published 2006)

Test system: developing blood vessels
Test: Apelin-soaked bead implantation in frog embryos, vascular outgrowth by erg in situ hybridization
Conditions: beads soaked in apelin 0.1 mg/ml, mutated apelin 0.25 mg/ml, BSA 1 mg/ml or rm VEGF-164 0.25 mg/ml; implanted stage 24-26, assayed stage 35-37
Method: Beads were microsurgically implanted in an avascular region, the posterior lateral mesoderm, of stage 24-26 embryos. Embryos were cultured in 0.2× MMR until stage 35-37, at which time they were prepared for whole mount in situ hybridization analysis as described in Example 2. The embryonic vascular system was visualized using an antisense probe directed against transcripts encoding the Xenopus vascular marker, erg (Baltzinger et al., 1999, Dev. Dyn. 216:420-33).

Substance | vascular outgrowth toward implanted beads
Apelin-13 | outgrowth of developing blood vessels toward the apelin-soaked beads
VEGF | nearly identical outgrowth of developing blood vessels
